## OPERA 2.9 data: fraction unbound values

Data: OPERA 2.9 data sets, kmansouri/OPERA on GitHub.

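The OPERA project collected these measurements from public sources as training and test data for property models. A listed value is a point estimate from one report or more. Method, purity and exact conditions of the single measurements are not given. Where a salt, mixture or single isomer is drawn, the source does not say that exactly this form was tested. Unmarked limits or estimates from the upstream databases cannot be ruled out.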

The unbound fraction in human plasma runs from 0 (all bound) to 1 (all free).
Cells with "–" have no entry in this list.

compound	name	fu
C[C@H](O)C(=O)Nc1c(I)c(C(=O)NC(CO)CO)c(I)c(C(=O)NC(CO)CO)c1I	Iopamidol	0.9988
O=S1(=O)OC(c2ccc([O-])cc2)(c2ccc(O)cc2)c2ccccc21.[Na+]	Phenol red sodium salt	0.1117
Cc1ccc(S(=O)(=O)Nc2c(C(=O)N[C@H](C)C(C)(C)C)c(C)nn2-c2ccccc2)cc1	–	0.0111
c1ccc(C(O[C@@H]2CCCN(CCc3ccc4c(c3)OCO4)C2)c2ccccc2)cc1	Zamifenacin	0.002114
CCN(CC)CCNC(=O)c1ccc(NC(C)=O)cc1	Acecainide	0.9
Cc1cc(Nc2nc(O[C@H](C)c3ccc(F)cn3)c(C#N)nc2C)n[nH]1	–	0.03607
C[C@@](Cc1ccc(O)c(O)c1)(NN)C(=O)O	Carbidopa	0.64
NC(=O)c1cnccn1	Pyrazinamide	0.9
CC[C@H](CO)Nc1nc(SCc2ccccc2)nc2nc(N)sc12	–	0.02087
CN(CC1(C)CCCO1)S(=O)(=O)c1ccc(Cl)c(S(N)(=O)=O)c1 (stereo unspecified)	Mefruside	0.35
COc1ccccc1Oc1c(NS(=O)(=O)c2ccc(C(C)C)cn2)nc(-c2ccnc(-c3nn[nH]n3)c2)nc1OCCO	Tezosentan	0.00875
C[C@H]1[C@@H](OC(=O)CCC(=O)O)O[C@@H]2O[C@@]3(C)CC[C@H]4[C@H](C)CC[C@@H]1[C@@]24OO3	Artesunate	0.25
Cc1cn([C@@H]2C[C@@H](O)[C@H](CO)O2)c(=O)[nH]c1=O	Telbivudine	0.967
CC1(C)[C@H](NC(=O)/C(=N\OCc2cc(=O)c(O)cn2O)c2csc(N)n2)C(=O)N1OS(=O)(=O)O	–	0.3088
NS(=O)(=O)c1cc2c(cc1C(F)(F)F)NC(Cc1ccccc1)NS2(=O)=O (stereo unspecified)	Bendroflumethiazide	0.06
CC[C@@H](c1ccc(C(=O)O)c(Oc2cccc(Cl)c2)c1)N1CCC[C@H](n2cc(C)c(=O)[nH]c2=O)C1	–	0.02618
CCOC(=O)[C@H](CCc1ccccc1)N[C@H]1CCCN2CCC[C@@H](C(=O)O)N2C1=O	Cilazapril	0.75
O.Cl.Cl.CN1CCc2cccc3-c4c(C[C@@H]1c23)ccc(O)c4O.CN1CCc2cccc3-c4c(C[C@@H]1c23)ccc(O)c4O	–	0.09818
CN1CCN(CCCN2c3ccccc3Sc3ccc(C(F)(F)F)cc32)CC1	Triphthasine	0.007794
CCOc1cc(Cc2cnc(N)nc2N)cc(OCC)c1-n1cccc1	Epiroprim	0.1
CO[C@H]1O[C@@H]2O[C@@]3(C)CC[C@H]4[C@H](C)CC[C@@H]([C@H]1C)[C@@]24OO3	Artemether	0.5
O=C(NCCO[N+](=O)[O-])c1cccnc1	Nicorandil	0.75
c1ccc2c(c1)Cc1ccccc1-2	Fluorene	0.01567
Cl.O=C(c1ccc(OCCN2CCCCC2)cc1)c1c(-c2ccc(O)cc2)sc2cc(O)ccc12	Raloxifene hydrochloride	0.0129
Fc1ccc(C(c2ccc(F)cc2)N2CCN(C/C=C/c3ccccc3)CC2)cc1	Flunarizine	0.05
CCCOC(=O)c1cc(O)c(O)c(O)c1	Propyl gallate	0.0258
CCN(Cc1cccc(S(=O)(=O)[O-])c1)c1ccc(C(=C2C=CC(=[N+](CC)Cc3cccc(S(=O)(=O)[O-])c3)C=C2)c2ccc(O)cc2S(=O)(=O)[O-])cc1.[Na+].[Na+]	Fd&c green no. 3	0.0151
CC[C@@]1(O)C(=O)OCc2c1cc1n(c2=O)Cc2cc3c(N)cccc3nc2-1	9-Aminocamptothecin	0.004
C[C@H]1C[C@H]2[C@@H]3CCC4=CC(=O)C=C[C@]4(C)[C@@]3(Cl)[C@@H](O)C[C@]2(C)[C@@]1(OC(=O)CC)C(=O)COC(=O)CC	–	0.13
CC[C@]12CC[C@@H]3[C@H]4CC/C(/C=C4CC[C@H]3[C@@H]1CC[C@@]2(O)C#C)=NO	–	0.03
C=C1CC[C@H](O)C/C1=C/C=C1\CCC[C@]2(C)[C@@H]([C@H](C)CCCC(C)C)CC[C@@H]12	Vitamin D3	0.35
CC(C)OC(=O)OC(C)OC(=O)C1=C(CS[C@@H]2[C@H](NC(=O)/C(=NOC)/c3c[s]c(N)[n]3)C(=O)N12)COC (stereo partly specified)	–	0.71
O=C(CO)NCCCOc1cccc(CN2CCCCC2)c1	Roxatidine	0.95
O=c1[nH]c2ccccc2n1CCCN1CCN(C(c2ccccc2)c2ccccc2)CC1	Oxatomide	0.09
CN1C(=O)OC(C)(C)C1=O	Trimethadione	0.9258
C[C@]12CCC(=O)C=C1[C@@H]1C[C@@H]1[C@H]1[C@@H]3[C@@H]4C[C@@H]4[C@@]4(CCC(=O)O4)[C@@]3(C)CC[C@@H]12	Drospirenone	0.03
CC(=O)N=c1sc(S(N)(=O)=O)nn1C	Methazolamide	0.45
CCC(C)(C)NCC(O)COc1ccccc1C(=O)CCc1ccccc1 (racemic)	–	0.0175
C#CCN[C@@H]1CCc2ccccc21	Rasagiline	0.09
COCC(=O)Nc1c(I)c(C(=O)NCC(O)CO)c(I)c(C(=O)N(C)CC(O)CO)c1I (stereo unspecified)	Iopromide	0.99
COc1cc([C@@H]2c3cc4c(cc3C(O[C@@H]3O[C@@H]5COC(c6cccs6)O[C@H]5[C@H](O)[C@H]3O)C3COC(=O)[C@@H]32)OCO4)cc(OC)c1O (some centres undefined)	Teniposide	0.003767
CCN(CC)C(=O)Nc1ccc(OCC(O)CNC(C)(C)C)c(C(C)=O)c1 (stereo unspecified)	Celiprolol	0.75
CC(C)NCC(O)COc1ccc(O)cc1 (stereo unspecified)	Prenalterol	0.96

The 3 lowest values of fu among the entries above:

compound	name	fu
c1ccc(C(O[C@@H]2CCCN(CCc3ccc4c(c3)OCO4)C2)c2ccccc2)cc1	Zamifenacin	0.002114
COc1cc([C@@H]2c3cc4c(cc3C(O[C@@H]3O[C@@H]5COC(c6cccs6)O[C@H]5[C@H](O)[C@H]3O)C3COC(=O)[C@@H]32)OCO4)cc(OC)c1O (some centres undefined)	Teniposide	0.003767
CC[C@@]1(O)C(=O)OCc2c1cc1n(c2=O)Cc2cc3c(N)cccc3nc2-1	9-Aminocamptothecin	0.004